Tests used:
Assay type in all cases: cell-based, human
Settings in all cases: 5,000 cells/well, incubated 4 or 5 days, CELLCOUNTING-LITE
[1] = system: NCI-N87 (gastric carcinoma); experiment: Cell viability assay, NCI-N87
[2] = system: SK-BR-3 (breast adenocarcinoma); experiment: Cell viability assay, SK-BR-3
Protocol: (§1) The human cell lines NCI-N87 (gastric carcinoma), SK-BR-3 (breast adenocarcinoma), and SK—OV-3 (ovarian adenocarcinoma) were seeded at 5,000 cells/well in a culture media in a 96-well flat-bottom plate. Solutions of ADC compounds, ADC-A1, ADC-A2, ADC-C2, ADC-C8, ADC-C29, and ADC-C52, were prepared by a 3-fold serial dilution and added into cells. Trastuzumab deruxtecan (DS-8201) was used as a positive control. The cells were incubated for 4 or 5 days at 37° C. under 5% CO2. CELLCOUNTING-LITE was then added to each well. The plate was mixed and incubated for 10 min at room temperature. The solution in each cell was transferred to a 96-well white opaque plate for reading.

[3] = system: SK-OV-3 (ovarian adenocarcinoma); experiment: Cell viability assay, SK-OV-3
Protocol: as §1

## DS-8201
[1]
  EC50: 0.29 nM
[2]
  EC50: 0.075 nM
  Max Killing: 82%
[3]
  EC50: 0.162 nM
  Max Killing: 34%

From patent US20260041782A1, “ANTIBODY-DRUG CONJUGATES, PHARMACEUTICAL COMPOSITIONS, AND THERAPEUTIC APPLICATIONS” (priority 2022, published 2026)
